Assays:
KRT10 = assay: qPCR gene expression assay in differentiated primary keratinocytes: KRT10; settings: pooled primary keratinocytes differentiated 72hrs with 1.2mM Ca2+, treated 24hrs, test compound concentration of 10µm; relative to housekeeper genes
Experimental: (§1) Barrier function and development are keys to proper skin function and health. A comparative series of gene assays were performed on barrier function related genes to show the performance of compounds of general formula (I) according to the present invention.
(§2) Primary keratinocytes from 5 donors were pooled and plated at 100,000 cells/well in 6 well plates. Cells were grown in KGM-Gold (Lonza) at 37°C, 5% CO2 and then differentiated for 72hrs via the addition of 1.2mM Ca^2+. Cells were then treated for 24hrs with fresh medium containing vehicle, or vehicle plus test compound, using a test compound concentration of 10µm. Following treatment any effect on cell viability was confirmed via an LDH assay on the culture media. The cells were washed in PBS and RNA isolated via QIAzol (QIAgen) following the manufacturer's instructions. RNA quantity and quality was measured via Nanodrop and bioanalyzer assessments ahead of qPCR assessment for the levels of specific gene products. Test genes were selected to cover various aspects of epidermal function and quantified relative to the levels of a control panel of housekeeper genes. A positive fold change (log2 FC) value indicates an increase of expression, while a negative fold change indicates a decrease in expression.

LOR = assay: qPCR gene expression assay in differentiated primary keratinocytes: LOR; settings: pooled primary keratinocytes differentiated 72hrs with 1.2mM Ca2+, treated 24hrs, test compound concentration of 10µm; relative to housekeeper genes
Experimental: as §1, §2

FLG = assay: qPCR gene expression assay in differentiated primary keratinocytes: FLG; settings: pooled primary keratinocytes differentiated 72hrs with 1.2mM Ca2+, treated 24hrs, test compound concentration of 10µm; relative to housekeeper genes
Experimental: as §1, §2

ALOX12B = assay: qPCR gene expression assay in differentiated primary keratinocytes: ALOX12B; settings: pooled primary keratinocytes differentiated 72hrs with 1.2mM Ca2+, treated 24hrs, test compound concentration of 10µm; relative to housekeeper genes
Experimental: as §1, §2

ELOVL4 = assay: qPCR gene expression assay in differentiated primary keratinocytes: ELOVL4; settings: pooled primary keratinocytes differentiated 72hrs with 1.2mM Ca2+, treated 24hrs, test compound concentration of 10µm; relative to housekeeper genes
Experimental: as §1, §2

CERS3 = assay: qPCR gene expression assay in differentiated primary keratinocytes: CERS3; settings: pooled primary keratinocytes differentiated 72hrs with 1.2mM Ca2+, treated 24hrs, test compound concentration of 10µm; relative to housekeeper genes
Experimental: as §1, §2

CLDN1 = assay: qPCR gene expression assay in differentiated primary keratinocytes: CLDN1; settings: pooled primary keratinocytes differentiated 72hrs with 1.2mM Ca2+, treated 24hrs, test compound concentration of 10µm; relative to housekeeper genes
Experimental: as §1, §2

KLK11 = assay: qPCR gene expression assay in differentiated primary keratinocytes: KLK11; settings: pooled primary keratinocytes differentiated 72hrs with 1.2mM Ca2+, treated 24hrs, test compound concentration of 10µm; relative to housekeeper genes
Experimental: as §1, §2

[1] = test system: barrier function related genes; assay: qPCR gene expression assay in differentiated primary keratinocytes: all assayed genes together; settings: average over the nine test genes; keratinocytes treated 24hrs, test compound concentration of 10µm
Experimental: as §1, §2

TGM1 = assay: qPCR gene expression assay in differentiated primary keratinocytes: TGM1; settings: pooled primary keratinocytes differentiated 72hrs with 1.2mM Ca2+, treated 24hrs, test compound concentration of 10µm; relative to housekeeper genes
Experimental: as §1, §2

Compound	Test Gene KRT10 log2 FC (KRT10) [log2 FC]	Test Gene LOR log2 FC (LOR) [log2 FC]	Test Gene FLG log2 FC (FLG) [log2 FC]	Test Gene ALOX12B log2 FC (ALOX12B) [log2 FC]	Test Gene ELOVL4 log2 FC (ELOVL4) [log2 FC]	Test Gene CERS3 log2 FC (CERS3) [log2 FC]	Test Gene CLDN1 log2 FC (CLDN1) [log2 FC]	Test Gene KLK11 log2 FC (KLK11) [log2 FC]	Average log2 FC [1] [log2 FC]	Test Gene TGM1 log2 FC (TGM1) [log2 FC]
COc1cccc(NC(=O)c2ccc(C)cc2)c1	0.892	0.583	0.775	0.165	0.583	0.558	0.459	0.224	0.537	0.596
COc1ccc(NC(=O)c2cccc(NC(=O)c3ccccc3)c2)cc1	0.476	0.567	0.482	0.277	0.301	0.424	0.416	0.342	0.420	0.497

Source: EP4701613B1, “COSMETIC USES FOR MAINTAINING AND RESTORING SKIN BARRIER FUNCTION” (dated 2026)
